Assay results published in patent US12453779B2, “Chemoselective thiol-conjugation with alkene or alkyne-phosphonothiolates and -phosphonates” (FORSCHUNGSVERBUND BERLIN E.V., priority 2018, dated 2025).

Test system: Cetuximab
Experiment: Cetuximab conjugation, anti-biotin Western blot
Settings: reduced antibody, pH 7.4 to 8.5
Text: Finally, the inventors applied this new cysteine-selective reaction sequence for the conjugation of IgG-antibodies (scheme 11). The modification strategy relies on a two-step reduction-alkylation approach, previously applied to maleimide conjugation (S. O. Doronina, B. E. Toki, M. Y. Torgov, B. A. Mendelsohn, C. G. Cerveny, D. F. Chace, R. L. DeBlanc, R. P. Gearing, T. D. Bovee, C. B. Siegall, J. A. Francisco, A. F. Wahl, D. L. Meyer, P. D. Senter, Nat Biotech 2003, 21, 778-784). In the first step the interchain disulphide bridges that hold the antibody together are reduced upon treatment with dithiothreitol (DTT). The free thiols can then react with the phosphonothiolates in a thiol addition reaction. First experiments were conducted with Cetuximab, a monocolonal IgG1 antibody against human epidermal growth factor.
As a proof of principle the antibody was modified with biotin alkene-derivative 4 and analysed by SDS-PAGE, followed by an anti-biotin western blotting.
1.25 μl of a 100 μM solution of Cetuximab antibody (in PBS) was mixed with 10 μl borate containing PBS (50 mM borate, pH 8.0) and 1.25 μl of a DTT solution (100 mM DTT in same borate buffer, pH 8.0). Control samples were prepared similarly, without adding DTT. These mixtures were incubated on a thermo-shaker for 30 min at 37° C. […]

C#CP(=O)(OCC)SCCNC(=O)CCCC[C@@H]1SC[C@@H]2NC(=O)N[C@@H]21 (stereo partly shown)
labelling of the antibody in dependence of pH: more labelling of the antibody is obtained with the alkyne-phosphonothiolate with increasing pH
